Assay [1] addresses T1, Tubulin (Bos taurus) (UniProt Q6B856+Q862L2+Q862F3). Nature of the assay: Binding affinity to calf brain tubulin colchicine binding site assessed as Koff at 3 uM incubated for 30 mins by fluorescence based photon-counting instrument.
Assay [2] has as its target T1, Tubulin (Bos taurus). Description: Binding affinity to calf brain tubulin colchicine binding site assessed as retention half time at 3 uM incubated for 30 mins by fluorescence based photon-counting instrument.
The target of a further assay is Tubulin (Homo sapiens) (UniProt P68371+Q9H4B7+P0DPH7+P68366+Q13509+Q71U36+P04350+Q3ZCM7+P07437+P68363+Q9BQE3+Q6PEY2+Q13885+Q9BVA1+Q9BUF5).

Protein sequences, listed by entry. Tags and fused reporters are not part of them. Lines headed by an entry give the natural chain unless they say otherwise; changes in a name come on top.
UniProt P68371: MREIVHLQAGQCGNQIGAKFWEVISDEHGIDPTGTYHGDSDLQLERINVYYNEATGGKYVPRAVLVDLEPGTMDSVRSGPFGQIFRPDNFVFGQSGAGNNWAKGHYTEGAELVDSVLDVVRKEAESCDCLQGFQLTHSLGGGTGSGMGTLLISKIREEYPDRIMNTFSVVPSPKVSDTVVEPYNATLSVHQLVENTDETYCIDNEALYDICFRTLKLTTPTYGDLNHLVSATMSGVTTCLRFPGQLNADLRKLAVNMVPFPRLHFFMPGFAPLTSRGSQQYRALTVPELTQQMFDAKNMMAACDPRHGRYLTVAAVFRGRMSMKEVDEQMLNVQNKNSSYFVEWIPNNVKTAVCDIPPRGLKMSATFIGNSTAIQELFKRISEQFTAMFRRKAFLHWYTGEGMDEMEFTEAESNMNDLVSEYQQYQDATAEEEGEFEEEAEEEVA
UniProt P0DPH7: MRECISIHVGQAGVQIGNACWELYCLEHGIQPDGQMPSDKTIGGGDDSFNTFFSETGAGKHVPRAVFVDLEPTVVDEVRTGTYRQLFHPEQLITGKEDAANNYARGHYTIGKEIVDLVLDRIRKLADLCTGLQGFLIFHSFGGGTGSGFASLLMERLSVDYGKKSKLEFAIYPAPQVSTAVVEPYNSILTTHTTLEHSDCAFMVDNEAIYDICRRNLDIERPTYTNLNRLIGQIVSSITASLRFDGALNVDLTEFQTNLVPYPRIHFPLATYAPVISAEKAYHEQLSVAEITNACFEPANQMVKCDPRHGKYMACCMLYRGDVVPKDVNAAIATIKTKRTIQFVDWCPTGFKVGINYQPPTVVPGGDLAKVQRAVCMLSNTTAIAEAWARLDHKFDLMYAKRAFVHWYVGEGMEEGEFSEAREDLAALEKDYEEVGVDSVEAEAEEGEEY
UniProt P68366: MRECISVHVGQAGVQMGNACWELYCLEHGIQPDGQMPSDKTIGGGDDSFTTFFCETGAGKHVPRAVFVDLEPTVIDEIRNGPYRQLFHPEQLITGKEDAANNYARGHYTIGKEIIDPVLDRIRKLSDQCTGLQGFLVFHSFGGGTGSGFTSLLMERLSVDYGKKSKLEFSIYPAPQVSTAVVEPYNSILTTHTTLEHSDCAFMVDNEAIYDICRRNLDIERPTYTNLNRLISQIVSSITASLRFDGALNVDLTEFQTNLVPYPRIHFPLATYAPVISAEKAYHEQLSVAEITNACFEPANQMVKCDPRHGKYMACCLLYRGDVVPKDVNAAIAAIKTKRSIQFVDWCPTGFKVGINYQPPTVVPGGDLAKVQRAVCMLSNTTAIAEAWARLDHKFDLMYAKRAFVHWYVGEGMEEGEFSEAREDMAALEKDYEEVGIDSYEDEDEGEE
UniProt Q13509: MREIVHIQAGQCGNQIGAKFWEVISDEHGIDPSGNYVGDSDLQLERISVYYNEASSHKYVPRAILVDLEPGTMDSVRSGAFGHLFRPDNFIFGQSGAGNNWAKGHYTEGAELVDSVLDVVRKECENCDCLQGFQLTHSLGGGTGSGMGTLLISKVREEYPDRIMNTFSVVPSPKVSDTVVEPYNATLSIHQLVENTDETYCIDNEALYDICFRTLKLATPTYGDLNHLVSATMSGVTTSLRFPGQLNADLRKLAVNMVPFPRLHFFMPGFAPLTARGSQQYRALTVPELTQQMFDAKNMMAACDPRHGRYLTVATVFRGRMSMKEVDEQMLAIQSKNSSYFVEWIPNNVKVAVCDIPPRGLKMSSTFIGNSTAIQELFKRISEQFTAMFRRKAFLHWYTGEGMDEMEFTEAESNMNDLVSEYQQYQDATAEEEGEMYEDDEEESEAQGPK
UniProt Q71U36: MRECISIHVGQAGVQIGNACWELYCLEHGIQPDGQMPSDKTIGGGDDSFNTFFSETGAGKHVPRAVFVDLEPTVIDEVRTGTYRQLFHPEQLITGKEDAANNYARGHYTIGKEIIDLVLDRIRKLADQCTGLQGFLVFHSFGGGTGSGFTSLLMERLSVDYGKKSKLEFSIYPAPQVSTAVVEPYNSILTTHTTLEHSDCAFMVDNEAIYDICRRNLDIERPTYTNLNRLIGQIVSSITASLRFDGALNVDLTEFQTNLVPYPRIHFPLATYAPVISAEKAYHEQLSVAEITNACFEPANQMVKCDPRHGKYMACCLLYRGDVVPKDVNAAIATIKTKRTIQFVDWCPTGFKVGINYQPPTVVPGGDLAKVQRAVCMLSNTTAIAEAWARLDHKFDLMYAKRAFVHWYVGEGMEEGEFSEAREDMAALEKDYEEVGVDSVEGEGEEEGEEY
UniProt P04350: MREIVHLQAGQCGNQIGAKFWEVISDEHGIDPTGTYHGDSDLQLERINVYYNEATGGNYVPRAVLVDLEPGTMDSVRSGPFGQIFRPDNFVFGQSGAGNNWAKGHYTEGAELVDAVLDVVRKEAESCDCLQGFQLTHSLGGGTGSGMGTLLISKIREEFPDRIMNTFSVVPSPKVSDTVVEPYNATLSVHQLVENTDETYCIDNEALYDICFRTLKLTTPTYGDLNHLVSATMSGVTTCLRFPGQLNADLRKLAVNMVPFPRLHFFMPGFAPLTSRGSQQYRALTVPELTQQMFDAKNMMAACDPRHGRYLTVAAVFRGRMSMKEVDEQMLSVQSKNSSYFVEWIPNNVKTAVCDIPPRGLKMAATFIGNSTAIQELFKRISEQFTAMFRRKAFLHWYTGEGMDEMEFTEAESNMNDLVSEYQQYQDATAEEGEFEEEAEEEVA
UniProt Q3ZCM7: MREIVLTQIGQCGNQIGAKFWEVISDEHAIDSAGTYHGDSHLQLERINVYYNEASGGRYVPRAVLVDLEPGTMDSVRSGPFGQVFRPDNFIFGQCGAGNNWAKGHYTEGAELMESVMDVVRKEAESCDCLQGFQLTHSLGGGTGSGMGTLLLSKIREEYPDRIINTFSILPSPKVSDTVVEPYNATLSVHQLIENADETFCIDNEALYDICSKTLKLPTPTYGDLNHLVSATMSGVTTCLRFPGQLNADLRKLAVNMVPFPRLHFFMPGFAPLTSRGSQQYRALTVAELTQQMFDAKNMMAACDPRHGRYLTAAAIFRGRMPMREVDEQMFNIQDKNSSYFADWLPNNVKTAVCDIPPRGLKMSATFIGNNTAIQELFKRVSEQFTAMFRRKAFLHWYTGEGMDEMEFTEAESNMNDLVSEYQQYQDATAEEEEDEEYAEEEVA
UniProt P07437: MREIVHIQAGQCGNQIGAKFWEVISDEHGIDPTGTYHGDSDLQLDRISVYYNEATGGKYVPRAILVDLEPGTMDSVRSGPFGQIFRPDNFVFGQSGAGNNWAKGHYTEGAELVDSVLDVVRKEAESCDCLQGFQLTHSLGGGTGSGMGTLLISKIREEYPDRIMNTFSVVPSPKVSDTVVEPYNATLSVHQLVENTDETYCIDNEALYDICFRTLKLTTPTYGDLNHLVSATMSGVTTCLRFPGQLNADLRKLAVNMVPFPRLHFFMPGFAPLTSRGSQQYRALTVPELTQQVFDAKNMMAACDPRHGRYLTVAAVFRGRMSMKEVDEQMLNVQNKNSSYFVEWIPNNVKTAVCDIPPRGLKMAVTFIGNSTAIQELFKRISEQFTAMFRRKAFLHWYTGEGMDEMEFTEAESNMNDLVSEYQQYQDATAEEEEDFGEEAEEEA
UniProt P68363: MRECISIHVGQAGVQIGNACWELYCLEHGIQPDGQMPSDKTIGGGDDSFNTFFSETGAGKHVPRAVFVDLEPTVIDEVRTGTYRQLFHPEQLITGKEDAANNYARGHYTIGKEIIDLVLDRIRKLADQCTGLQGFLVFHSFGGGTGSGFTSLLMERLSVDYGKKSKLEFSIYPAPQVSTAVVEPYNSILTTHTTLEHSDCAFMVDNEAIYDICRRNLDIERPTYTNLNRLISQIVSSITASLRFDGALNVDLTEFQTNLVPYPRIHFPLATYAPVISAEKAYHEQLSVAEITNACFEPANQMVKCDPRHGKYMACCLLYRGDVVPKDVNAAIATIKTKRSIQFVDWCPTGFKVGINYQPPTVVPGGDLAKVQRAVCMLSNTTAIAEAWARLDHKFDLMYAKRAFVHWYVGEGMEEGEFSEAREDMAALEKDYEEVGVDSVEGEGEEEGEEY
UniProt Q9BQE3: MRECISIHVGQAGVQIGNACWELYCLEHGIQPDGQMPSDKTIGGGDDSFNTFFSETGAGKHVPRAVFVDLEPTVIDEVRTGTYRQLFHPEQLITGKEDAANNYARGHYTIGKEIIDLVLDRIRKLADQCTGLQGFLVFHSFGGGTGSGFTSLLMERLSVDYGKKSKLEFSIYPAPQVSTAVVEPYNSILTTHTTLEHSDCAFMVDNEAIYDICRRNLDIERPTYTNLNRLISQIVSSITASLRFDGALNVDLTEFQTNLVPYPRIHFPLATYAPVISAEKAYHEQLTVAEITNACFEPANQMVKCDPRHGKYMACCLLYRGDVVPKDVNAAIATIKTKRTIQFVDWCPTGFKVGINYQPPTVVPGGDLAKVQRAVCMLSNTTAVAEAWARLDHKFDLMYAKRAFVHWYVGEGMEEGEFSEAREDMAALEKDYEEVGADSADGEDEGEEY
UniProt Q6PEY2: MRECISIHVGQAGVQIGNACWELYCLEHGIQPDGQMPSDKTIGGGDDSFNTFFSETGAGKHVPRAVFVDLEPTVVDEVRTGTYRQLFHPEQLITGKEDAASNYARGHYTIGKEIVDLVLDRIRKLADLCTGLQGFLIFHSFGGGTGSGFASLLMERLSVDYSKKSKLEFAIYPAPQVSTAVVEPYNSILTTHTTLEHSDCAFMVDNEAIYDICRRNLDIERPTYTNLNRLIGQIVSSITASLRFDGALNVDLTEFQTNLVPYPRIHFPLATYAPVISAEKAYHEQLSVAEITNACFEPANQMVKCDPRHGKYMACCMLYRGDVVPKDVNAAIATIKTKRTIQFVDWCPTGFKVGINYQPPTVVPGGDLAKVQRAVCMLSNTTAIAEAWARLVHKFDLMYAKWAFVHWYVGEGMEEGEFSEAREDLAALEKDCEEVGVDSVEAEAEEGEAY
UniProt Q13885: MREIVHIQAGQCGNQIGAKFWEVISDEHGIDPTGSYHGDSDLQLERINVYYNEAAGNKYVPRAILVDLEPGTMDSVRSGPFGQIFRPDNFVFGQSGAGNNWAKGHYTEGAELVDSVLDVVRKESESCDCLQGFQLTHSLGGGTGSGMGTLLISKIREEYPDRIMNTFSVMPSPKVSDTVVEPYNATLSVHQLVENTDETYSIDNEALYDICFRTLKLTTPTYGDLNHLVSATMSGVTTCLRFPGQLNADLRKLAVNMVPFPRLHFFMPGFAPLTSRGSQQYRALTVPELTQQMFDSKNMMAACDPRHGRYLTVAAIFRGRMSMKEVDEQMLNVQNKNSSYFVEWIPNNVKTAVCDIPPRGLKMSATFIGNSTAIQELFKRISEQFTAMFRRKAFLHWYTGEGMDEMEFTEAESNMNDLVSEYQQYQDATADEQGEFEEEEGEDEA
UniProt Q9BVA1: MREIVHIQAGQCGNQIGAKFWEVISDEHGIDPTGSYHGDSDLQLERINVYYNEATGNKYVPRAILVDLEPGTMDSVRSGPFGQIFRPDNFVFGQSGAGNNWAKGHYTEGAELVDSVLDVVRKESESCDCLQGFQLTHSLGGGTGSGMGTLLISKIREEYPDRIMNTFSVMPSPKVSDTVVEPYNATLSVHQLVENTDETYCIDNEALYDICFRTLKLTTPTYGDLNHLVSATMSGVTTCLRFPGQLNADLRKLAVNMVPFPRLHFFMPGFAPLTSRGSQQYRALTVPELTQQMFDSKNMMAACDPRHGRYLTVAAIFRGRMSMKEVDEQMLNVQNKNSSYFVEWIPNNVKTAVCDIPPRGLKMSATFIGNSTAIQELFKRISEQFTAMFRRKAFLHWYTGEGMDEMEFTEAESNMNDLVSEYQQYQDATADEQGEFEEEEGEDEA
UniProt Q9BUF5: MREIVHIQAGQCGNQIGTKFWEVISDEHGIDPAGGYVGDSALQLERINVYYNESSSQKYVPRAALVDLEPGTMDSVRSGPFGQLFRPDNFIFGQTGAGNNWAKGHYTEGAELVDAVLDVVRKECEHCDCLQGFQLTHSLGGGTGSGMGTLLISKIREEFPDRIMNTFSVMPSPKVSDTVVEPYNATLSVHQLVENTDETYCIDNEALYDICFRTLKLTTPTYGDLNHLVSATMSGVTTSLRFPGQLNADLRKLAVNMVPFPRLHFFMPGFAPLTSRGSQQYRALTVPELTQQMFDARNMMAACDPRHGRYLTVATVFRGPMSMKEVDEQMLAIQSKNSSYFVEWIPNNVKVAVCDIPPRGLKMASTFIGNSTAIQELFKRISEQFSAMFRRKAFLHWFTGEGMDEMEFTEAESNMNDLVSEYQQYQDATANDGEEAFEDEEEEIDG

For the compound `CCC[C@@H](NC(=O)[C@]1(C)CSC(/C(C)=N/O)=N1)c1cc(OCC2CC2)cc(=O)o1`, the K on Tubulin (Bos taurus) [1] is 5.6 10^-4/s. Moreover, the T1/2 at Tubulin (Bos taurus) [2] was determined as 19 min.

Consider `COCc1cc2cccc(NC(C)=C3C(=O)CC(c4ccccc4)CC3=O)c2o1` (stereo not drawn), for which the Ka on Tubulin (Homo sapiens) is 7.1 10^6/M.

For the origin of these results see ChEMBL document CHEMBL5385914 (J Med Chem, 2024).
